According to paper PMC10443802, “Targeting a xenobiotic transporter to ameliorate vincristine-induced sensory neuropathy” (JCI Insight, 2023):

Target: T1, hNTCP (Homo sapiens, UniProt Q14973)
T1 sequence (Q14973 1-349): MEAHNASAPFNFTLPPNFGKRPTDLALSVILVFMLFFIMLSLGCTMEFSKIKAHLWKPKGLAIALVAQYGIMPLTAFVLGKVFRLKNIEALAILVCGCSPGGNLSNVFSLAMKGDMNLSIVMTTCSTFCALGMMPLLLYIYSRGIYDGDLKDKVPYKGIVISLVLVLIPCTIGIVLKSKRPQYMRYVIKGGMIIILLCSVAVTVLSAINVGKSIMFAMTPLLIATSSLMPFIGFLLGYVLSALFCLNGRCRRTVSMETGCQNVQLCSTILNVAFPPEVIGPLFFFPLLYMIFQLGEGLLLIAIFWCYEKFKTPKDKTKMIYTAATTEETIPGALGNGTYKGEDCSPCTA
Experiment: Vincristine uptake screen, HeLa cells overexpressing hNTCP
Format: in vitro ADME

`CC[C@]1(O)C[C@H]2CN(CCc3c([nH]c4ccccc34)[C@@](C(=O)OC)(c3cc4c(cc3OC)N(C=O)[C@H]3[C@@](O)(C(=O)OC)[C@H](OC(C)=O)[C@]5(CC)C=CCN6CC[C@]43[C@@H]65)C2)C1` [Vincristine, vincristine] was tested, and the “Vincristine uptake (% of vector control)” value was 115.00 % of vector control.
